{"source": "patent US20240216551A1", "about": "“RADIOPHARMACEUTICALS BASED ON ((R)-1-((6-HYDRAZINYLNICOTINOYL)-D-ALANYL)PYRROLIDIN-2-YL)BORONIC ACID (HYNIC-IFAP) FOR DETECTING THE OVEREXPRESSION OF FIBROBLAST ACTIVATION PROTEIN” (INSTITUTO NACIONAL DE INVESTIGACIONES NUCLEARES, priority 2021, published 2024)", "key": {"breast cancer tumors": {"test_system": "breast cancer tumors", "settings": "human, in vivo"}, "lung tumors": {"test_system": "lung tumors", "settings": "human, in vivo"}}}
{"substance": "^18F-FDG", "values": [{"measurement": "tumor detection by imaging", "setting": "breast cancer tumors", "value": "detect with high sensitivity breast cancer tumors"}, {"measurement": "tumor detection by imaging", "setting": "lung tumors", "value": "detect lung tumors with high sensitivity"}]}
